{
  "sequences": {"note": "Protein sequences, listed by entry. Tags and fused reporters are not part of them. Residues count along the entry.", "UniProt Q99N23, 19-324 limits assumed": "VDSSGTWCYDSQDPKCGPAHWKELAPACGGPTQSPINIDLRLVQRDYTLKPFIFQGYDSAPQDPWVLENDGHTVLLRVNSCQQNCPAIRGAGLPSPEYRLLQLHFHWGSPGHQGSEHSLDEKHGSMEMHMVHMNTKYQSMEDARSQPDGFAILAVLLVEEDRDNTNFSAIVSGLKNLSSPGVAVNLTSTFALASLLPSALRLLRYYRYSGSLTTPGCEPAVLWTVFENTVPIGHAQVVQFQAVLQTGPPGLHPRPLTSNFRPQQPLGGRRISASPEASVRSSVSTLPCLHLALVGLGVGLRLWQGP"},
  "source": "ChEMBL document CHEMBL1136840",
  "about": "(Bioorg Med Chem Lett, 2009)",
  "molecular_target": "Carbonic anhydrase 15 (Mus musculus, UniProt Q99N23)",
  "details": "cos-7",
  "data": [
    {"compound": "O=[As](O)(O)c1ccccc1", "values": [
      {"measurement": "Ki", "result": 68.2, "unit": "µM"}
    ]}
  ]
}
